The test system of assay [1] is primary rat hippocampal neurons. The settings on record: 200 μM (FIG. 18); pretreated 2 hours; Aβ15-25 peptide 24-48 hours.
Assay [2] deals with primary mouse hippocampal neurons. The settings on record: 200 μM (FIG. 17); pretreated 2 hours; Aβ15-25 peptide 24-48 hours.

As for `CCCCCCCCOC(=O)C(=O)CCC(=O)O` [octyl α-KG, octyl α-ketoglutarate], the “protection against Aβ induced cell death” value in assay [1] was “protects primary rat hippocampal neurons”. For the same molecule, the “protection against Aβ induced neuronal dysfunction and cell death” value in assay [2] is “protects primary mouse hippocampal neurons”.
